# Antibody variant affinities, Ab-95 light chain, assay 2

Source: Engelhart et al. 2022 (doi:10.1038/s41597-022-01779-4), MIT Lincoln Laboratory and A-Alpha Bio; data file from the FLAb repository.

Target peptide (SARS-CoV-2 spike, HR2 region): PDVDLGDISGINAS

Parent: Ab-95, a human scFv built as VH, a (GGGGS)3 linker, VL. Only the CDRs of the light chain vary.
VH: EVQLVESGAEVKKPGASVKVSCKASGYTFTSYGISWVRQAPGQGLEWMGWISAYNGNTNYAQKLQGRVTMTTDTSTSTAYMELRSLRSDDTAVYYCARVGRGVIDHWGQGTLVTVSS
VL: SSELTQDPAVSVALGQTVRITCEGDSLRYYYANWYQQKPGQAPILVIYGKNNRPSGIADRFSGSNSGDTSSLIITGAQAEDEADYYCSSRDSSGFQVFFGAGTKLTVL

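The starting antibody came from a phage panning campaign against this peptide. The library (AAYL52) carries one to three amino acid substitutions per variant, with no insertions or deletions. In AlphaSeq, yeast of one mating type display the scFv and yeast of the other type display the target. Pairs that bind mate more often; barcode pairs of the diploids are counted by sequencing. A regression on co-assayed BCL2-family reference pairs converts the normalised counts of each replicate to an apparent Kd. Each pool was mated in three replicate cultures.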

The whole VL of each variant is written out.
Numbers give log10(Kd / nM), so 0 is 1 nM and 3 is 1 µM. Smaller is tighter.
"n.d." marks a missing value. The strain was present, yet no cells mated with the target were sequenced in that replicate, which points to weak or no binding.
For reference, the parent read 2.31 as the reference entry and 2.25 as a member of this library.
Empty control strains, which show no peptide, gave a signal in 28% of pairings with library AAYL52; the median was 3.91 and 95% of these signals were weaker than 2.90. No background was subtracted. The control count says in how many pairings with the empty strains this scFv gave a signal, with their mean in brackets.

VL | log10 Kd (nM) by replicate | signal with controls
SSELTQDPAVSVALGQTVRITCEGDSPRYYYANWYQQKPGQAPILVIYGKNNRPSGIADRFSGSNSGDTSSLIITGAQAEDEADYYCSSPDSSGFQVFFGAGTKLTVL | n.d. n.d. 3.17 | 3/9 (3.75)
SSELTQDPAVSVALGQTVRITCEGDSLRYYYANWYQQKPGQAPILVIYGKNNRPSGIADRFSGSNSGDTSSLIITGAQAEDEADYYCSTRDSSGFDVFFGAGTKLTVL | 2.73 3.15 3.65 | 4/9 (3.45)
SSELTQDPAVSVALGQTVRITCEGDSWRYYYANWYQQKPGQAPILVIYGKNNRPSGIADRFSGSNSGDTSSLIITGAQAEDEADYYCSSADSVGFQVFFGAGTKLTVL | n.d. n.d. n.d. | 0/9
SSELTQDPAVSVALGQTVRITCEGDSLIYYYAYWYQQKPGQAPILVIYCKNNRPSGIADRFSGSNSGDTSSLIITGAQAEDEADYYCSSRDSSGFQVFFGAGTKLTVL | 3.91 4.20 4.61 | 7/9 (4.26)
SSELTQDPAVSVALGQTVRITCEGDSLRYYYANWYQQKPGQAPILVIYEKNNRPSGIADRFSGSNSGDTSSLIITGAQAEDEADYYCLSRDSSGFQGFFGAGTKLTVL | 3.17 3.33 n.d. | 2/9 (5.13)
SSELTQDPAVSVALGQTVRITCEGDSLRYYYANWYQQKPGQAPILVIYGKNNRPSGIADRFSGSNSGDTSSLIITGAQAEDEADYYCSSRTSSGWQVFFGAGTKLTVL | 3.13 2.96 2.74 | 5/9 (3.85)
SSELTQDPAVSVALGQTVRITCVWDSLRYYYANWYQQKPGQAPILVIYGKNNRPSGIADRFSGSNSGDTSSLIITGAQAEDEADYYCSARDSSGFQVFFGAGTKLTVL | 3.65 3.39 3.44 | 2/9 (4.37)
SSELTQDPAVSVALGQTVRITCEGDSLRYWYANWYQQKPGQAPILVIYGKNNRPSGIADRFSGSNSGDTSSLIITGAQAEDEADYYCISRDSSGFQVFFGAGTKLTVL | 2.49 3.44 2.74 | 2/9 (4.14)
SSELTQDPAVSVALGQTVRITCEFNSLRYYYANWYQQKPGQAPILVIYGKNNRPSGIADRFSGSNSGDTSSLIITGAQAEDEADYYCSSRDSSWFQVFFGAGTKLTVL | n.d. 3.68 n.d. | 1/9 (4.61)
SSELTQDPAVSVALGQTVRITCEGESLRYYYANWYQQKPGQAPILVIYGKNNFPSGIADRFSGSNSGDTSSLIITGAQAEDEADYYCSSRDSSGFNVFFGAGTKLTVL | n.d. 3.15 2.60 | 2/9 (3.24)
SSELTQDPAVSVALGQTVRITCEGQSLRYYYAFWYQQKPGQAPILVIYGKNNRPSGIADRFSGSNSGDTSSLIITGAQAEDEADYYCSYRDSSGFQVFFGAGTKLTVL | n.d. 5.19 n.d. | 4/9 (4.07)
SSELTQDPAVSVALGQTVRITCGGDSLRYYQANWYQQKPGQAPILVIYAKNNRPSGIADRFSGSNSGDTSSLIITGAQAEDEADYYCSSRDSSGFQVFFGAGTKLTVL | 2.32 1.95 1.80 | 4/9 (3.41)
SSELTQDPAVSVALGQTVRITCEGKEFRYYYANWYQQKPGQAPILVIYGKNNRPSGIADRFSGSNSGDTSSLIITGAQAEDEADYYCSSRDSSGFQVFFGAGTKLTVL | 1.83 2.08 2.29 | 4/9 (3.82)
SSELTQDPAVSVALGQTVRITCEGDSLRYYYANWYQQKPGQAPILVIYGKDNRPTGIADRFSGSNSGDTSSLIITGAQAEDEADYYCSSRDSSGFQHFFGAGTKLTVL | 2.39 2.15 2.05 | 6/9 (3.69)
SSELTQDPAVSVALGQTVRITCERDSLHYYYANWYQQKPGQAPILVIYGKNNRPSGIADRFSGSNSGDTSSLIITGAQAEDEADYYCSSRDSSGFQVVFGAGTKLTVL | 3.52 3.29 2.93 | 1/9 (3.65)
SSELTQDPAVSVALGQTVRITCEGKSLRYYYANWYQQKPGQAPILVIYGKDNRPSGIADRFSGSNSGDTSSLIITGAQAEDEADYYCWSRDSSGFQVFFGAGTKLTVL | n.d. n.d. n.d. | 1/9 (2.38)
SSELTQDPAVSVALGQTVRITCKGDSLRYYYANWYQQKPGQAPILVIYGKNNRPSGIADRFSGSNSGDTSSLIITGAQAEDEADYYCSSRQSSHFQVFFGAGTKLTVL | 1.88 1.93 1.61 | 3/9 (2.95)
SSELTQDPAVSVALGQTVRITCEGDSLRYYYANWYQQKPGQAPILVIYGKNNRPSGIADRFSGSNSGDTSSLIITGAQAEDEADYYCSERDSSGKQVFFGAGTKLTVL | n.d. n.d. n.d. | 0/9

Extract of 2 entries:

VL | log10 Kd (nM) by replicate | signal with controls
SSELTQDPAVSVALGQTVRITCEGDSLRYYYANWYQQKPGQAPILVIYEKNNRPSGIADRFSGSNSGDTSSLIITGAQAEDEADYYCLSRDSSGFQGFFGAGTKLTVL | 3.17 3.33 n.d. | 2/9 (5.13)
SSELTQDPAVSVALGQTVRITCVWDSLRYYYANWYQQKPGQAPILVIYGKNNRPSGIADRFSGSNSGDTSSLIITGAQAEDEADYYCSARDSSGFQVFFGAGTKLTVL | 3.65 3.39 3.44 | 2/9 (4.37)